# Ab-14 heavy chain CDR variants: yeast mating affinities

Values reported by Engelhart et al. 2022, doi:10.1038/s41597-022-01779-4 (FLAb copy).

All variants were tested on one target, the spike HR2 peptide PDVDLGDISGINAS (SARS-CoV-2).

Parent: Ab-14, a human scFv built as VH, three GGGGS repeats, VL. Only the CDRs of the heavy chain vary.
VH: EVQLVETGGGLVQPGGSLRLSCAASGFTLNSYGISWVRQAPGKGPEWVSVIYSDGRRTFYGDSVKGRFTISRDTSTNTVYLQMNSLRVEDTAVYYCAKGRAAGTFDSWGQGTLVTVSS
VL: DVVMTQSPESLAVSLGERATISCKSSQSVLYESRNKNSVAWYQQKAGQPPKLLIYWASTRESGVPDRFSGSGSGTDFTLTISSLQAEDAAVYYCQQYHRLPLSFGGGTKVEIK

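Phage display of a naive human antibody library on the peptide gave the parent. Variants in AAYL49 differ from the parent at up to three CDR positions; double and triple changes were sampled at random. In AlphaSeq, yeast of one mating type display the scFv and yeast of the other type display the target. The frequency of each diploid, read from paired DNA barcodes, reflects how well the two displayed proteins bind. The ratio of observed to expected reads was calibrated, replicate by replicate, on BCL2-family standards whose Kd was known from biolayer interferometry. The assay was run in three technical replicates.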

Positions count from residue 1 of the parent VH; S35H puts H in place of S. Scale: log10 of Kd in nM, estimated from mating counts; low values are strong binders. The mean shown is taken over the replicates in which the pair was detected. "nd" marks a missing value. The strain was present, yet no cells mated with the target were sequenced in that replicate, which points to weak or no binding. As a blank, each scFv also met three strains without target: over library AAYL49, 15% of these pairings were detected, typically at 4.06 and seldom below 2.83. Also given: how often the same scFv was detected with the empty control strains, with their mean in brackets. Parent in this assay: reference entry 0.65, copy in this library 4.11 (one replicate of three).

changes,log10 Kd (nM) by replicate,"mean, log10 nM",empty controls
S35H/D54C/S107F,nd nd nd,nd,0 of 9
F59K/K65R,2.47 3.57 3.44,3.16,4 of 9 (3.54)
G26S/S31D/R100C,nd 4.12 nd,4.12,2 of 9 (3.13)
I34F/G55C/T58P,3.80 4.19 nd,3.99,0 of 9
G33A/Y52A/K65H,nd 3.66 nd,3.66,3 of 9 (3.36)
S31H/D62L/K65P,nd 3.64 nd,3.64,1 of 9 (4.02)
V50K/T58H/K65R,nd nd nd,nd,0 of 9
S53R/S63H/G103K,4.36 nd nd,4.36,1 of 9 (2.85)
T28V/D54N/A102W,nd 4.09 nd,4.09,1 of 9 (4.29)
L29E/Y32Q/G99W,4.25 3.25 5.15,4.22,6 of 9 (4.21)
S53W/Y60V/V64N,nd nd 2.72,2.72,0 of 9
Y32M/R57N/V64T,nd nd nd,nd,0 of 9
Y32W/T58K/A102V,nd nd nd,nd,1 of 9 (2.85)
I51D/T104P/D106Y,nd nd nd,nd,0 of 9
L29Y/Y60A/V64D,nd nd nd,nd,1 of 9 (3.63)
S31G/V50P/S107A,nd nd nd,nd,0 of 9
R56T/D62R/K65R,1.73 2.59 1.85,2.06,1 of 9 (3.41)
F27M/Y52C/D106Q,nd nd nd,nd,4 of 9 (4.56)
F59E/Y60W,5.15 3.93 nd,4.54,5 of 9 (4.60)
F59W/D62G/S63E,4.86 2.79 nd,3.83,1 of 9 (4.50)
L29T/S31N/D54G,3.96 4.37 4.72,4.35,3 of 9 (4.34)
D54F/R56E/F105W,nd nd nd,nd,0 of 9
G26D/S53E/F59L,nd nd 4.71,4.71,3 of 9 (4.43)
T58D/K65Q,4.84 2.81 nd,3.82,3 of 9 (3.94)
D54F/R100P/A102D,nd nd nd,nd,1 of 9 (3.42)
N30W/D62Q/S107M,3.04 2.27 nd,2.66,0 of 9
Y52H/T58E/G61M,nd nd 5.66,5.66,3 of 9 (4.19)
S107C,2.61 2.10 2.07,2.26,2 of 9 (3.97)
S35M/D62R/S107H,nd nd nd,nd,2 of 9 (3.88)
G55Y/R56K/D62S,nd 4.99 4.81,4.90,2 of 9 (3.73)
F59P/T104N,5.38 4.18 nd,4.78,1 of 9 (3.59)
Y52I/S53V/F105D,nd 3.78 nd,3.78,3 of 9 (3.92)
T28M/R56A/A102M,1.77 1.96 2.20,1.98,2 of 9 (5.33)
S35L/D62P/R100E,nd 3.88 nd,3.88,3 of 9 (4.41)
N30A/R56Y/A102F,4.03 3.01 nd,3.52,1 of 9 (4.94)
S31E/S35Y/D54Q,nd 4.86 5.67,5.26,0 of 9
Y60N,nd nd 3.69,3.69,1 of 9 (3.60)
S35C/G99S,nd nd nd,nd,0 of 9
G26H/Y60C/G61Y,nd nd nd,nd,0 of 9

Repeated from above, the 3 best binders with a signal in all replicates:

changes,log10 Kd (nM) by replicate,"mean, log10 nM",empty controls
T28M/R56A/A102M,1.77 1.96 2.20,1.98,2 of 9 (5.33)
R56T/D62R/K65R,1.73 2.59 1.85,2.06,1 of 9 (3.41)
S107C,2.61 2.10 2.07,2.26,2 of 9 (3.97)